Measurements taken from PMC7615931 (Science (New York, N.Y.), 2024).

Biological target: the molecule itself
Experiment: cryo-EM structure

B1: β-arrestin 1 (βarr1), purified (natural protein, UniProt P29066 1-418, looked up)
chain: MGDKGTRVFKKASPNGKLTVYLGKRDFVDHIDLVDPVDGVVLVDPEYLKERRVYVTLTCAFRYGREDLDVLGLTFRKDLFVANVQSFPPAPEDKKPLTRLQERLIKKLGEHAYPFTFEIPPNLPCSVTLQPGPEDTGKACGVDYEVKAFCAENLEEKIHKRNSVRLVIRKVQYAPERPGPQPTAETTRQFLMSDKPLHLEASLDKEIYYHGEPISVNVHVTNNTNKTVKKIKISVRQYADICLFNTAQYKCPVAMEEADDTVAPSSTFCKVYTLTPFLANNREKRGLALDGKLKHEDTNLASSTLLREGANREILGIIVSYKVKVKLVVSRGGLLGDLASSDVAVELPFTLMHPKPKEEPPHREVPESETPVDTNLIELDTNDDDIVFEDFARQRLKGMKDDKDEEDDGTGSPHLNNR
stoichiometry N: 2
